Reference: ChEMBL document CHEMBL1129291, “Tyrosine kinase inhibitors. 8. An unusually steep structure-activity relationship for analogues of 4-(3-bromoanilino)-6,7-dimethoxyquinazoline (PD 153035), a potent inhibitor of the epidermal growth factor receptor” (J Med Chem, 1996)

The chains behind the UniProt entries cited, without tags or fusion partners.
UniProt P00533, whole entry: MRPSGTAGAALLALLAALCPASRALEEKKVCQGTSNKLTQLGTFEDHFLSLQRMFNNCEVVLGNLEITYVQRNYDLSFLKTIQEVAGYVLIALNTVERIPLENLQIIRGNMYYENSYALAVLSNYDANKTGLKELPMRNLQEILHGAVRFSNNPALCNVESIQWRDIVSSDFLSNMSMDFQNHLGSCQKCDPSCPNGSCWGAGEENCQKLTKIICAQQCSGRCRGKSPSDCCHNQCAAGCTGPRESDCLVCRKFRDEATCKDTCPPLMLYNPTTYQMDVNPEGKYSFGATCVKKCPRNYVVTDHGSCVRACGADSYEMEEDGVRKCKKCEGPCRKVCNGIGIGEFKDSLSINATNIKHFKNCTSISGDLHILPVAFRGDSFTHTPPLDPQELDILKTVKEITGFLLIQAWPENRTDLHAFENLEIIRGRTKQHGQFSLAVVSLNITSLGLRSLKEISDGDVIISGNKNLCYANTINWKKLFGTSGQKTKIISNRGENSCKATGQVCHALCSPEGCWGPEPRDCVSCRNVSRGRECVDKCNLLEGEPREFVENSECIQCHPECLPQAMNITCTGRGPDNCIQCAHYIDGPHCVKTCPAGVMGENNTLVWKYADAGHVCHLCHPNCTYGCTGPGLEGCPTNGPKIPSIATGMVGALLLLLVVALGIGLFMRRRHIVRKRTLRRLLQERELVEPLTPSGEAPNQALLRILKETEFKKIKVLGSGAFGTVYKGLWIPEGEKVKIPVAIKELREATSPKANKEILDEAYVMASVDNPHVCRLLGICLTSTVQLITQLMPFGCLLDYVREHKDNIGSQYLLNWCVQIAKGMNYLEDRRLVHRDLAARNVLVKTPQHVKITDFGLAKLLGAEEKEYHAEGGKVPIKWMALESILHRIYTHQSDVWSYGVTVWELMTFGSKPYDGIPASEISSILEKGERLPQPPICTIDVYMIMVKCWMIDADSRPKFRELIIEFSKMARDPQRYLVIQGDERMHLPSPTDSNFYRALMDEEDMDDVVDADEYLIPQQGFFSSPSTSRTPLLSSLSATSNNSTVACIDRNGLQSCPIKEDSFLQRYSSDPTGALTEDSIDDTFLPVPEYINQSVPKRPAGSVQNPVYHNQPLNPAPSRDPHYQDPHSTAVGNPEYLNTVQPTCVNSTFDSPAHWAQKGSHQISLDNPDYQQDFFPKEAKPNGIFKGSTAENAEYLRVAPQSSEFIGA

Biological target: Epidermal growth factor receptor (Homo sapiens, UniProt P00533)
Experiment: Concentration required to inhibit the phosphorylation of a 14-residue fragment of phospholipase C gamma 1 by Epidermal growth factor receptor from A431 cell vesicles

| SMILES | IC50 |
| --- | --- |
| COc1cc2ncnc(Nc3cccc(Cl)c3)c2cc1OC [TYRPHOSTIN AG-1478] | 0.31 nM |
| COc1cc2ncnc(Nc3cccc(F)c3)c2cc1OC | 3.8 nM |
